## Binding of CDR-mutated scFvs to a peptide of the spike HR2 region

Antigen: PDVDLGDISGINAS, a 14-residue peptide of the SARS-CoV-2 spike HR2 region.

Parent scFv Ab-14: VH joined to VL by a 15-residue (Gly4Ser)3 linker. Changes lie in the light chain CDRs alone.
VH: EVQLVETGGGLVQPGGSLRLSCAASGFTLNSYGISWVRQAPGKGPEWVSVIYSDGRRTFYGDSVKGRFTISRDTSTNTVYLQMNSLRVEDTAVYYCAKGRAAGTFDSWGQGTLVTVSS
VL: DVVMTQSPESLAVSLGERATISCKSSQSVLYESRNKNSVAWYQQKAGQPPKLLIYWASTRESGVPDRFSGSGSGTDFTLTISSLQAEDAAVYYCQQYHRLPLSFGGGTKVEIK

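The starting antibody came from a phage panning campaign against this peptide. This is the validation round: designs drawn from the data on random variants, tested in the same kind of assay. Their group label is 14L_GP_Gibbs (GP: Gaussian process model; Gibbs: Gibbs sampling; a sequence that several methods proposed may carry one label only). In AlphaSeq, yeast of one mating type display the scFv and yeast of the other type display the target. Mating (16 h, 30 °C) was followed by selection of diploids and sequencing of their barcodes. Scores were corrected for input abundance and mapped to Kd with protein pairs of known affinity run in the same pool. There are six technical replicates.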

Each variant is given by its three light chain CDRs, as the data file delimits them; those of the parent are KSSQSVLYESRNKNSVA, WASTRES, QQYHRLPLS.
Values are log10 of the apparent Kd in nM; lower means stronger binding.
Averages over replicates are reported, and they cover detected replicates only.
"n.d." marks a missing value. The strain was present, yet no cells mated with the target were sequenced in that replicate, which points to weak or no binding.
The authors averaged sequences with at least three values out of six and counted those with two or fewer as poor binders.

CDR-L1,CDR-L2,CDR-L3,log10 Kd (nM) by replicate,"log10 Kd (nM), mean",signal with controls
KIQQLVLYESRNKNSVA,NASTRFS,QAYHRLPLS,0.70 / 0.72 / 0.36 / 0.81 / 0.53 / 0.59,0.62,1 of 18 (2.58)
KLSMSGLYESRNWNSVA,NASLRES,QDYHRLPLS,1.06 / 0.63 / 0.61 / 0.51 / 0.48 / 0.68,0.66,4 of 18 (2.85)
KAQQGELYESRDWNSVA,DASKRLS,QQYHRLPLS,-0.22 / -0.30 / -0.37 / -0.70 / -0.43 / -0.38,-0.40,0 of 18
KLQNSMLYESRNDNSVA,DASKRES,QAYHRLPLS,0.53 / 0.42 / 0.58 / 0.38 / 0.65 / 0.60,0.53,2 of 18 (3.30)
KWSQSVMGESVNKNSVA,NASTRES,QQYHRLPLS,0.04 / 0.12 / -0.39 / 0.06 / 0.11 / -0.06,-0.02,1 of 18 (2.35)
KLSCSVDYWSRNKNSVA,GASTRES,QQYHRLPLS,0.16 / -0.13 / 0.05 / 0.02 / 0.14 / 0.25,0.08,1 of 18 (2.06)
KLDTEWLYGKRNKNSVA,QASLRES,QQYHRLPLS,0.93 / 0.27 / 0.36 / -0.04 / 0.26 / 0.26,0.34,0 of 18
KSSTSQEYEDRNFNSVA,HASTREE,QQYHRLPLS,0.19 / -0.17 / 0.11 / 0.02 / -0.45 / 0.00,-0.05,1 of 18 (1.88)
KVQFQVWYSSRNKNSVA,DANTRES,QQYHRLPLS,0.27 / 0.37 / 0.16 / 0.73 / -0.08 / 0.54,0.33,1 of 18 (2.26)
KVSQSQLYESRMKQSVA,NASERES,QQYHRLPLS,0.30 / 0.32 / 0.42 / 0.25 / 0.32 / 0.42,0.34,0 of 18
KCQGSQLYESRNKNAVA,NASYRLD,QQYHRLPLS,0.65 / 0.56 / 0.96 / 0.40 / 0.91 / 0.74,0.70,1 of 18 (2.05)
KLMGSMLYEERNWNSVA,HASHRES,QQYHRLPLS,0.83 / 0.83 / 0.44 / 0.78 / 0.52 / 0.73,0.69,0 of 18
KLQQSVEYQARNQNSVA,SASTRLD,QQYHRLPLS,-0.01 / -0.06 / -0.32 / -0.32 / -0.13 / 0.01,-0.14,2 of 18 (2.73)
KESQSELYESAAKNSVA,NAMQRMS,QQYHRLPLS,-0.34 / -0.46 / -0.48 / -0.47 / -0.52 / -0.38,-0.44,1 of 18 (3.12)
KLQQSNLYEDRNANNVA,NASQRES,QQYHRLPLS,-0.13 / -0.22 / -0.20 / -0.36 / -0.25 / -0.11,-0.21,2 of 18 (2.88)
KDQGSQLYESRNKNAVA,NASTRCD,QQYHRLPLS,0.03 / -0.27 / -0.23 / -0.18 / -0.22 / 0.00,-0.15,1 of 18 (2.57)
KLSQSTLYEQRNTNSVA,QASQRLS,QQYHRLPLS,-0.19 / -0.48 / 0.04 / -0.36 / -0.31 / 0.05,-0.21,0 of 18
KQQCGELYGSRNKNSVA,DASQRES,QQYHRLPLS,0.15 / 0.17 / 1.65 / 1.96 / 0.81 / 1.03,0.96,1 of 18 (2.09)
LVDQSQLYENRMKNSVA,EASLRES,QQYHRLPLS,0.43 / 0.69 / 0.34 / 0.35 / 0.39 / 0.49,0.45,0 of 18
KSSPSEYYEDRNFNSVA,HASQRES,QQYHRLPLS,0.50 / 0.89 / 0.62 / 0.61 / 0.45 / 0.56,0.61,0 of 18
KLSCGVDYESRNKNSVA,GGSTRES,QQYHRLPLS,0.14 / 0.16 / 0.00 / -0.15 / -0.05 / 0.09,0.03,1 of 18 (3.05)
KMSQSQLYEERASNAVA,QASQRES,QQYHRLPLS,0.51 / 0.02 / -0.58 / 0.06 / -0.20 / -0.33,-0.09,1 of 18 (3.47)
KVSGSVLLWSRTANAVA,EASTRES,QQYHRLPLS,1.07 / 0.99 / 0.95 / 1.28 / 1.05 / 1.18,1.09,2 of 18 (3.17)
KLSQSVLMESRWKNSVA,DASQREE,QQYHRLPLS,-0.11 / 0.12 / 0.03 / 0.19 / 0.15 / 0.15,0.09,1 of 18 (2.32)
VLQQSVLPESRNKNSVA,EASTRLS,QQYHRLPLS,0.80 / 0.91 / 0.48 / 0.52 / 0.50 / 0.73,0.66,3 of 18 (3.07)
KMPQSWWYESRMKQSVA,NASERES,QQYHRLPLS,0.29 / 0.27 / 0.07 / 0.13 / 0.19 / 0.28,0.20,1 of 18 (2.40)
KSEDGVDDESRNDNSVA,NASTRLS,QQYHRLPLS,1.14 / 1.20 / 1.35 / 1.31 / 0.78 / 0.87,1.11,0 of 18
KLEQSTLYESRNKNSVA,NASQRER,QQYHRLPLS,-0.18 / -0.29 / -0.53 / -0.13 / -0.19 / -0.22,-0.26,1 of 18 (2.94)
KMSQSWLGQSWNKNSVA,NASQRES,QQYHRLPLS,0.51 / 0.51 / 0.38 / 0.42 / 0.46 / 0.66,0.49,5 of 18 (2.47)
KFMQSMGYESRNKNSVA,QASTRSS,QQYHRLPLS,0.34 / 0.49 / 0.39 / 0.19 / 0.31 / 0.50,0.37,1 of 18 (2.46)
KLSQSVGYQSRNKNSVA,HASQRED,QQYHRLPLS,0.78 / 0.71 / 0.57 / 0.58 / 0.59 / 0.67,0.65,2 of 18 (4.25)
KVSYSVEYQERNKNSVA,QASQRES,QQYHRLPLS,0.14 / 0.15 / -0.28 / 0.07 / 0.22 / 0.22,0.09,1 of 18 (2.92)
KLSMSELPESRNKNSVA,WASTREP,QQYHRLPLS,0.24 / 0.36 / 0.23 / 0.38 / 0.22 / 0.59,0.34,2 of 18 (2.63)
ILSQSMLYESRNKNSVA,NASQRWS,QDYHRLPLS,0.17 / 0.34 / 0.18 / 0.24 / 0.22 / 0.35,0.25,2 of 18 (2.92)
LVDQSQLYENRMKNSVA,DASLRES,QQYHRLPLS,0.07 / -0.32 / -0.36 / -0.01 / -0.33 / -0.43,-0.23,1 of 18 (1.67)
KMPQSVWYEQRNKNSVA,NGSTRFS,QQYHRLPLS,0.08 / 0.16 / -0.21 / 0.16 / 0.13 / 0.13,0.07,0 of 18
KFQQSVLYESRNLNNVA,HGSTRSS,QQYHRLPLS,-0.09 / -0.21 / -0.33 / -0.09 / -0.37 / -0.14,-0.20,0 of 18
KISQSVLYESRNKNSIA,NANQREQ,QQYHRLPLS,n.d. / n.d. / n.d. / n.d. / n.d. / n.d.,n.d.,0 of 18
KSSQSWLGMDWNKNSVA,QASQRMS,QQYHRLPLS,0.64 / 0.95 / 0.94 / 1.19 / 0.85 / 0.76,0.89,0 of 18
KLSQWVEMESRWWNSVA,SASQRNE,QQYHRLPLS,0.90 / 0.21 / 1.12 / 0.49 / 0.72 / 0.58,0.67,0 of 18
KVSQSMLGESRNFNSVA,HASTREN,QQYHRLPLS,0.57 / 0.36 / 0.40 / 0.59 / 0.57 / 0.68,0.53,0 of 18
KLSQADWYESRNKNSVA,EASLRES,QQYHRLPLS,-0.26 / 0.28 / 0.05 / -0.25 / 0.04 / -0.17,-0.05,1 of 18 (1.97)
KFMYSVLYEERNQNSVA,SASQREQ,QQYHRLPLS,0.52 / 1.14 / -0.11 / 0.76 / -0.11 / 0.89,0.52,0 of 18
KSSSSTLYESGMKNSVA,NASKRMS,QQYHRLPLS,0.96 / 0.50 / 0.25 / 0.42 / 0.44 / 0.46,0.51,1 of 18 (3.33)
HSSPSVLYESRNKNSVA,NASTREE,QQYHRLPLS,0.31 / 0.25 / 0.22 / -0.01 / 0.17 / 0.02,0.16,0 of 18
KVMQSNWYESRWKNSVA,NASQRES,QQYHRLPLS,0.47 / 0.20 / 0.58 / 0.23 / 0.40 / 0.86,0.45,1 of 18 (2.24)
KLSQSNLYEWRNDNSVA,NASQRES,QQYHRLPLS,-0.05 / -0.09 / -0.23 / -0.11 / 0.07 / 0.08,-0.05,0 of 18
KLSMEHDYESRNKNSVA,QASTREW,QQYHRLPLS,-0.02 / 0.10 / -0.24 / -0.33 / -0.31 / -0.42,-0.20,1 of 18 (2.27)

The opening 5 entries, copied out:

| CDR-L1 | CDR-L2 | CDR-L3 | log10 Kd (nM) by replicate | log10 Kd (nM), mean | signal with controls |
|---|---|---|---|---|---|
| KIQQLVLYESRNKNSVA | NASTRFS | QAYHRLPLS | 0.70 / 0.72 / 0.36 / 0.81 / 0.53 / 0.59 | 0.62 | 1 of 18 (2.58) |
| KLSMSGLYESRNWNSVA | NASLRES | QDYHRLPLS | 1.06 / 0.63 / 0.61 / 0.51 / 0.48 / 0.68 | 0.66 | 4 of 18 (2.85) |
| KAQQGELYESRDWNSVA | DASKRLS | QQYHRLPLS | -0.22 / -0.30 / -0.37 / -0.70 / -0.43 / -0.38 | -0.40 | 0 of 18 |
| KLQNSMLYESRNDNSVA | DASKRES | QAYHRLPLS | 0.53 / 0.42 / 0.58 / 0.38 / 0.65 / 0.60 | 0.53 | 2 of 18 (3.30) |
| KWSQSVMGESVNKNSVA | NASTRES | QQYHRLPLS | 0.04 / 0.12 / -0.39 / 0.06 / 0.11 / -0.06 | -0.02 | 1 of 18 (2.35) |

A sequence measured in both rounds can read differently, since the two assays cover different ranges.
Three control strains display no target. For all light chain designs, 4% of the pairings with them gave a signal, with a median of 2.64 and one signal in twenty below 1.59, so weak values seen in few replicates may be background. The control count says in how many pairings with the empty strains this scFv gave a signal, with their mean in brackets.

From the AlphaSeq antibody data of Li et al. 2023 (doi:10.1038/s41467-023-39022-2), copy in the FLAb collection.